Experiment [1] deals with T1, Somatostatin receptor type 1 (Homo sapiens, UniProt P30872). Put plainly: Agonist activity at human sst1 receptor expressed in Chinese hamster CCL39 cells by luciferase reporter gene assay relative to somatostatin-14. The class given is functional, cell-based. (In general: Reporter assays use an easily measured gene product as a stand-in for the process of interest.)

Amino acid sequences for entries named in this document (tags omitted). A change or cut given only in a name is not applied to a line headed by its entry.
UniProt P30872: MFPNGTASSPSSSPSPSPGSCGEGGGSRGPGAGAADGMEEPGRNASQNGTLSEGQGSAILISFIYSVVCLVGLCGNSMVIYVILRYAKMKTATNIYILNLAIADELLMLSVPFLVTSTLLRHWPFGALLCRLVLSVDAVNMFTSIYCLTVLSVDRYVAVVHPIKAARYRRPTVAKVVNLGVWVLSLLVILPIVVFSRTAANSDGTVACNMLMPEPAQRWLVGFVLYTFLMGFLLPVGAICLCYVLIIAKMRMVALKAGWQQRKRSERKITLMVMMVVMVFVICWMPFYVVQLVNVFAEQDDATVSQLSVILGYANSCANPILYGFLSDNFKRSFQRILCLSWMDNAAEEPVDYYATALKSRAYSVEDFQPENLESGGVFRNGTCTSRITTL

Experiment [2] concerns the target T1, Somatostatin receptor type 1. Put plainly: Displacement of [125I]LTT-SRIF-28 from human sst1 receptor by autoradiography. The essentials:
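Competition autoradiography on 20-μm cryostat sections of membrane pellets from cells expressing each cloned receptor. Buffer was 170 mM Tris-HCl pH 8.2 with 1% BSA, bacitracin and 10 mM MgCl2. Cold washes, 1-week film exposure, image quantification against isotope standards, IC50 derived.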
On the technique in general: In a radioligand displacement assay an active substance lowers the binding of a labelled ligand.

As a reminder, the EC50 is the concentration that produces a half-maximal response. A higher EC50 goes with a need for much substance. By IC50 is commonly meant the midpoint of a concentration-inhibition curve.

As to `CC(C)NCc1ccc(C[C@@H]2NC(=O)[C@@H](Cc3c[nH]c4ccccc34)NC(=O)[C@H](Cc3ccccc3)NC(=O)[C@H](Cc3ccccc3)NC(=O)[C@H](CCCCN)NC(=O)[C@@H](NC(=O)[C@@H](N)Cc3ccc(O)cc3)CSSC[C@@H](C(=O)O)NC(=O)[C@H](CO)NC(=O)[C@H]([C@@H](C)O)NC(=O)[C@H](Cc3ccccc3)NC(=O)[C@H]([C@@H](C)O)NC2=O)cc1`, in experiment [1], the EC50 is 0.033 µM.
With `CC(C)NCc1ccc(C[C@@H]2NC(=O)[C@@H](N(C)C(=O)c3ccc4ccccc4c3)NC(=O)[C@H](Cc3ccccc3)NC(=O)[C@@H](NC(=O)[C@H](N)Cc3ccc(O)cc3)CSSC[C@@H](C(=O)N[C@H](C(N)=O)[C@@H](C)O)NC(=O)[C@H](Cc3ccccc3)NC2=O)cc1`, in experiment [2], the IC50 was 0.00019 µM. In experiment [1], this compound came in with an EC50 of 0.00037 µM.
With `CC(C)NCc1ccc(C[C@@H]2NC(=O)[C@H](N(C)C(=O)c3ccc4ccccc4c3)NC(=O)[C@H](Cc3ccccc3)NC(=O)[C@@H](NC(=O)[C@H](N)Cc3ccc(O)cc3)CSSC[C@@H](C(=O)N[C@H](C(N)=O)[C@@H](C)O)NC(=O)[C@H](Cc3ccccc3)NC2=O)cc1`, in experiment [2], the IC50 was found to be 0.097 µM.

The record behind these values is ChEMBL document CHEMBL1151856, “Novel, potent, and radio-iodinatable somatostatin receptor 1 (sst1) selective analogues” (J Med Chem, 2009).
